Source: patent US20230071934A1, “NOVEL USES” (Intra-Cellular Therapies, Inc., priority 2019, published 2023)

Biological target: bovine brain PDE1 (Bos taurus, UniProt Q01061)

With `CN1C(=O)c2c(nn(Cc3ccc(-c4cccc(F)n4)cc3)c2Nc2ccccc2)N2C1=N[C@@H]1CCC[C@@H]12` [Compound 214, (6aR,9aS)-5,6a,7,8,9,9a-hexahydro-5-methyl-3-(phenylamino)-2-((4-(6-fluoropyridin-2-yl)phenyl)methyl)-cyclopent[4,5]imidazo[1,2-a]pyrazolo[4,3-e]pyrimidin-4(2H)-one] the IC50 was 58 pM.
